Earlier results in US8449896B2, “Pharmaceutical composition having improved solubility” (Daiichi Sankyo Company, Limited, priority 2009, dated 2013).

Amino acid sequences for entries named in this document (tags omitted). Residues count along the entry.
UniProt P00742, 41-179 partner limits assumed: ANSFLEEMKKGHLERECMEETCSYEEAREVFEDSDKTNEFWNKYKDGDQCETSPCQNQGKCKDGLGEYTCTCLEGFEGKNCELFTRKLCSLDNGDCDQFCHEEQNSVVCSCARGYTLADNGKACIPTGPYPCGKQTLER
UniProt P00742, 235-488 limits assumed: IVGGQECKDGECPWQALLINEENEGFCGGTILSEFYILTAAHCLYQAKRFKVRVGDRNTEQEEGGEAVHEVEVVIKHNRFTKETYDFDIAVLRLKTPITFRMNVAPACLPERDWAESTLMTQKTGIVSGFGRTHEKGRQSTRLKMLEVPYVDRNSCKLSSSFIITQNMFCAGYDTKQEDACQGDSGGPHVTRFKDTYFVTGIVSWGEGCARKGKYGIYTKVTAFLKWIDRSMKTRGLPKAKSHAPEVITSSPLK

Molecular target: activated blood coagulation factor X (FXa) (Homo sapiens, UniProt P00742)
Conditions: known from Patent Documents 1 to 4; cited from earlier work

## CN1CCc2nc(C(=O)N[C@@H]3C[C@@H](C(=O)N(C)C)CC[C@@H]3NC(=O)C(=O)Nc3ccc(Cl)cn3)sc2C1 [compound I, N^1-(5-chloropyridin-2-yl)-N^2-((1S,2R,4S)-4-[(dimethylamino)carbonyl]-2-{[(5-methyl-4,5,6,7-tetrahydrothiazolo[5,4-c]pyridin-2-yl)carbonyl]amino}cyclohexyl)ethanediamide]
  inhibitory effect on activated blood coagulation factor X: potent inhibitory effect
